Laboratory results from patent US12305226B2 (dated 2025).

The chains behind the UniProt entries cited, without tags or fusion partners. Where a name states a change or a piece, a line headed by the entry shows the natural chain unless it says otherwise.
UniProt P11229: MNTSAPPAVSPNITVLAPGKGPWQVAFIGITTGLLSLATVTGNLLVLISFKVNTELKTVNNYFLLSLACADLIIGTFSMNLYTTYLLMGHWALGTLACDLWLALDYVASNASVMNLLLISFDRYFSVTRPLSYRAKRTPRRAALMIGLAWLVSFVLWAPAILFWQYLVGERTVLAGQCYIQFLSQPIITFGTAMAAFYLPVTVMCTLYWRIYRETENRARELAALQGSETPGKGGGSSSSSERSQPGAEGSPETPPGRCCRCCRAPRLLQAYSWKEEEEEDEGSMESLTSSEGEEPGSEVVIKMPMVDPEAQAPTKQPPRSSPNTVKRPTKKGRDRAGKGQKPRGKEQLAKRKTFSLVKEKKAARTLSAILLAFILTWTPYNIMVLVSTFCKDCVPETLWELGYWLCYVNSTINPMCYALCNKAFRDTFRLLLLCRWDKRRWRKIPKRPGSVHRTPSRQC

Target: CHRM1 (Homo sapiens, UniProt P11229)

## CCCCCCOc1nsnc1C1=CCCN(C)C1 [xanomeline]
  agonist type identified by polony co-localization ratios: allosteric
